The values that follow come from patent US20060052303A1, “Use of thyrotropin for regeneration of bone” (priority 2004, published 2006).

Amino acid sequences for entries named in this document (tags omitted). Residues count along the entry.
UniProt P16473, 21-764: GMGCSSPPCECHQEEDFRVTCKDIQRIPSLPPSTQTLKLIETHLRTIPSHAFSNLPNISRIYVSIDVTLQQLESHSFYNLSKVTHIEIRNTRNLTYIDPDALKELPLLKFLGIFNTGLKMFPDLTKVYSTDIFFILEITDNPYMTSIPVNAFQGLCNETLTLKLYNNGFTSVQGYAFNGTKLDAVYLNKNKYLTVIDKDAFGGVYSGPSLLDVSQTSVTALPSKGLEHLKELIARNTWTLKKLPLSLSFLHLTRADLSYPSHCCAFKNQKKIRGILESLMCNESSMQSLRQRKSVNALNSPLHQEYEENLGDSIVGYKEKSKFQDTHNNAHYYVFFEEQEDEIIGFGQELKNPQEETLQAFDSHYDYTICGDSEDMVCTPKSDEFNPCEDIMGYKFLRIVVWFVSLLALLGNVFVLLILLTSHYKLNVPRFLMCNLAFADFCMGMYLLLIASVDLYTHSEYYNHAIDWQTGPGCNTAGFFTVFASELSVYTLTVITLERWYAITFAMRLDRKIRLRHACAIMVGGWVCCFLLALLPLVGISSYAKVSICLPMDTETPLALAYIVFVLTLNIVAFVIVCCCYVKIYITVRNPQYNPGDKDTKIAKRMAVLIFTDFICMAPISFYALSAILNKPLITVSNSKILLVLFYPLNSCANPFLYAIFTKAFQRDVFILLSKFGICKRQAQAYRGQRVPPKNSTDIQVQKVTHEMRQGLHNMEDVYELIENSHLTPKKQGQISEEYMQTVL

In data set [1] the test system is ovariectomized (OVX) rats. In words: Treatment of osteopenia in ovariectomized rats with Thyrogen (Example 2A). The format is in vivo, Sprague-Dawley female rats. As for the experimental part: Seventy two 4 months old Sprague-Dawley female rats, weighting approximately 300 g were used in this study. The rats were kept in standard conditions (24° C. and 12 h/12 h light-dark cycle) in 20×32×20 cm cages during experiment. All animals had allowed free access to water and pelleted commercial diet (Harlan Teklad) containing 1,00% calcium, 0,65% phosphorus and 2,40 KlU of Vitamin D3 per kilogram.
Twelve animals were sham operated, while sixty were ovariectomized (OVX) bilaterally by abdominal approach. Treatment started immediately after ovariectomy as follows: (1) SHAM; (2) OVX+vehicle daily; (3) OVX+0.7 μg thyrotropin daily; (4) OVX+7 μg thyrotropin; (5) OVX+70 μg thyrotropin daily; (6) OVX+17β-estradiol 3 times a week. Animals were treated for 8 weeks (before DEXA analysis). Thyrogen® used in this study had specific activity of 7 lU/mg.
Animals were scanned at the beginning of therapy and than every two weeks during eight weeks of therapy using dual energy absorptiometry (DXA, HOLOGIC QDR-4000) equipped with Small Animal software. Prior to scan animals were anaesthetized with Thiopental (Nycomed).
Total body scans were performed and bone mineral density (BMD), bone mineral content (BMC) of lumbar vertebrae, of hind limbs, total body, and total body with head excluded were determined.
For urine collection animals were placed in metabolic cages and deprived of food for an overnight period of 18 hours. Blood was taken from orbital plexus. Blood and urine was collected at the beginning of therapy and than every two weeks during eight weeks of therapy.
Sacrifice started 8 weeks after the beginning of therapy in ether anesthesia. Bones were collected for histology.
After sacrifice, femora, tibiae and lumbar vertebrae were harvested and scanned, and BMD and BMC of whole bone and its parts were measured

A further data set concerns the target T1, TSH receptor (Homo sapiens, UniProt P16473).
T1 construct: host or cells: CHO
In words: Cell-based TSH potency assay (CHO cell line with TSH receptor and cAMP-responsive luciferase reporter). How it is done: The biological activity of thyrotropin alfa is determined by a cell-based assay. In this assay, cells expressing a functional thyrotropin receptor and a cAMP-responsive element coupled to a heterologous reporter gene, such as, for example, luciferase, are utilized. The measurement of the reported gene expression provides an indication of thyrotropin activity. The specific activity of thyrotropin alfa is determined relative to a reference material that is calibrated against the World Health Organization (WHO) human pituitary derived thyrotropin reference standard NIBSC 84/703 using an in vitro assay that measures the amount of cAMP produced by a bovine thyroid microsome preparation in response to thyrotropin alfa. The specific activity of thyrotropin alfa is typically in the range of 4-12 lU/mg as determined by a cell-based assay. […]
Cell-based TSH potency assay—Cells are seeded at 30 000 cells/well in growth medium in a 96-well tissue culture plate (Costar), excluding outside wells, to which medium is added. […] Intracellular luciferase activity is determined using the Luciferase Assay Reagent Kit (Promega, Madison, Wis., U.S.A.) according to the manufacturer's recommendations. Luminescence was measured on a Wallac Microlumat Plus LB 96 V luminometer.

Another data set concerns postmenopausal women. In words: Prospective clinical trial for treatment of osteoporosis (Example 4). The format is in vivo, human. As to conditions: expected. The source says: This Example describes a prospective clinical trial for treatment of osteoporosis with a TSHR agonist in humans. […] A TSHR agonist, e.g., thyrotropin or its analogues will be administered (e.g., daily, weekly, or biweekly) systemically (e.g., intravenous, subcutaneous, intramuscular, oral, or transdermal routes). Subjects will receive have Dose I (low) or Dose II (high) of the TSHR antagonist or placebo, which will be made available systemically.
Vertebral radiographs at base line and by the end of the study (median duration of observation, 24 months) will be performed. Serial measurements of bone mass by dual-energy x-ray absorptiometry (BMD) at 6 months intervals will be performed. Biochemical markers for bone formation and bone resorption will be determined in blood and urine at 3-6 months intervals. The subjects will be monitored for subsequent fractures (both vertebral and non-vertebral), if any, during the completion of the study.
Data will be analyzed for all women with at least one follow-up visit after enrollment. The rates of side effects and the proportions of women with fractures in the three study groups will be compared with the use of Pearson's chi-square test. All laboratory data and bone mineral measurements will be evaluated by analysis of variance, with the inclusion of terms for the treatment assignment and country. The statistical tests will be two-sided.

Data set [2] concerns bovine thyroid membrane preparation. In words: Membrane-based TSH specific activity assay (cAMP by RIA). The format is biochemical. To be noted: tested against human TSH reference standard (WHO) in membrane-based specific activity assay. As for the experimental part: Thyroid membrane preparation—The technique for preparing bovine thyroid membrane is based on a method described in Pekonen et al. (1980) J. Biol. Chem., 255:8121-8127. Calf thyroid glands are minced in 20 mM Tris HCl, 1 mM EDTA, pH 7.4. The minced tissue is homogenized in a single-speed VWR blender for 1 min and then filtered through cheesecloth. The homogenate is then centrifuged at 1000×g for 10 min at 4° C. and the pellet is discarded. The supernatant is removed and centrifuged at 10 000×g for 30 min at 4° C. The resulting pellet is resuspended in 20 mM Tris HCl, 1 mM EDTA, pH 7.4 and then centrifuged again at 10 000×g for 30 min. The pellet was resuspended and centrifuged at 18 000×g for 30 min. This may be repeated once more and, after quantification using BioRad Protein Assay according to the manufacturer's instructions, the pellet is resuspended to a final concentration of 1.25 mg/ml in 0.25 M sucrose, 20 mM Tris HCl, 1 mM EDTA, pH 7.4. The thyroid preparation is pulsed briefly in the blender, aliquotted, and then stored at less than −70° C.
Membrane-based TSH specific activity assay—Reference and test samples are analyzed at three levels. […] Cyclic AMP is quantified by RIA according to the manufacturer's recommendations (NEN).

Where [3] appears, read: 0.7 and 7 μg, compared to OVX animals, after 8 weeks.
The mark [4] stands for this setting: thyrotropin treated groups vs OVX animals.

As to thyrotropin alfa [Thyrogen®], the “BMD of hind limbs (including hip), in vivo” value in data set [1] (0.7 μg/rat daily, weeks 6 and 8, compared to OVX) was “increased BMD”. In data set [1] (0.7 μg/rat, 6 weeks), the “BMD of hind limbs, statistical significance” value is on record as “statistically significant level”. Also, the “action on bone remodeling at higher doses” value in data set [1] (70 μg/rat) is “more resorptive than anabolic”. Besides, the “BMD of proximal femur relative to sham, ex vivo DEXA” value in data set [1] (0.7 and 7 μg) was “reached sham values”. In data set [1] (setting [3]), the “BMD of distal femur, ex vivo DEXA” value is on record as “statistically significant increase” and the “BMD of proximal femur, ex vivo DEXA” value was “statistically significant increase”. Moreover, the “vertebrae BMD, in vivo” value in data set [1] (6 weeks) is given as “influence vertebrae BMD positively”. The body weight result in data set [1] (between experimental groups) is reported as “no significant differences”. For the same substance, in data set [1] (rat, in vivo), the side-effects entry is recorded as “no observed side-effects”. In addition, the “loss of bone following estrogen deficiency” value in data set [1] (systemic administration to ovariectomized rats immediately following surgery) is “effective in slowing the loss of bone”. For the same substance, in data set [1] (setting [4]), the “BMD of lumbar spine, ex vivo DEXA” value is “a trend but no statistical differences” and the “BMD of tibia, ex vivo DEXA” value is recorded as “a trend but no statistical differences”. Moreover, in the data set with TSH receptor (cell-based assay, relative to reference calibrated against WHO NIBSC 84/703), the specific activity is given as 4-12 lU/mg. Also, the “specific activity of Thyrogen used in this study” value in the data set with TSH receptor (material used in Example 2A, assay not stated at place) is recorded as 7 lU/mg. Moreover, in the data set on postmenopausal women, the “risk of vertebral and non-vertebral fractures” value is listed as “decrease”; the tolerability entry was “well tolerated”; the “vertebral, femoral, and total-body bone mineral density” value is listed as “increase”.

As to “rhTSH: rhTSH reference material of the cell-based TSH potency assay, tested against the WHO human TSH reference standard”, the “nominal specific activity assigned to reference material” value in data set [2] came out at 5.3 lU/mg.
